Source: US5686418A, “Prolonging survival of transplanted pancreatic cells” (Biomeasure Incorporated, priority 1996, dated 1997)

Amino acid sequences for entries named in this document (tags omitted). A change or cut given only in a name is not applied to a line headed by its entry.
UniProt P31391: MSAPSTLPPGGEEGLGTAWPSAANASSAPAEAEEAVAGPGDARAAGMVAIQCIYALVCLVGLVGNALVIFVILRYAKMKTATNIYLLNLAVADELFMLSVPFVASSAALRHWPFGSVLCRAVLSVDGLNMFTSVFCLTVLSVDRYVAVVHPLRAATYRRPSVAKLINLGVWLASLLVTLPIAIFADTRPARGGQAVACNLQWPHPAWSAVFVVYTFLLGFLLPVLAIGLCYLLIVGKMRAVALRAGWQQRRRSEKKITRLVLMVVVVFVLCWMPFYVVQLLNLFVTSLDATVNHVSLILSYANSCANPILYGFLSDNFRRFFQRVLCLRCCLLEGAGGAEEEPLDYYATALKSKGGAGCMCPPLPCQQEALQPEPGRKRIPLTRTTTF

Molecular target: human SSTR-4 (Homo sapiens, UniProt P31391)
Assay: Somatostatin receptor binding assay, hSSTR-4
Text: The human SSTR-1, SSTR-2, SSTR-3, SSTR-4, and SSTR-5 cDNA clones have been described (SSTR-1 and SSTR-2 in Yamada, Y., et al., Proc. Natl. Acad. Sci. USA., 89:251-255 (1992); SSTR-3 in Yamade, et al., Mol. Endocrinol. 6:2136-2142 (1993); and SSTR-4 and SSTR-5 in Yamada, et al., Biochem. Biophys. Res. Commun. 195:844-852 (1993)) and are also available from American Type Culture Collection (ATCC, Rockville, Md.) (ATCC Nos. 79044 (SSTR-1), 79046 (SSTR-2), and 79048 (SSTR-3)). […] Restriction endonucleases are available from New England Biolabs (Beverly, Mass.). This cDNA fragment was inserted into the mammalian expression vector, pCMV (Russell, D., et al., J. Biol. Chem., 264:8222-8229 (1989)), using standard molecular biology techniques (see e.g., Maniatis, T., et al., Molecular Cloning--A Laboratory Manual, Cold Spring Harbor Laboratory, 1982) to produce the expression plasmid, pCMV-human SSTR-1 through pCMV-human SSTR-5. Other mammalian expression vectors include pcDNA1/Amp (Invitrogen, Sandlesy, Calif.). The expression plasmids were introduced into the suitable bacterial host, E. Coli HB101 (Stratagene, La Jolla, Calif.) and plasmid DNAs, for transfection, were prepared on Cesium Chloride gradients.
CHO-K1 (ovary, Chinese hamster) cells were obtained from ATCC (ATCC No. CCL 61). […]

C[C@@H](O)[C@@H]1NC(=O)[C@H](CCCCN)NC(=O)[C@@H](Cc2c[nH]c3ccccc23)NC(=O)[C@H](Cc2ccccc2)NC(=O)[C@H](Cc2ccccc2)NC(=O)[C@@H](N)CSSC[C@@H](C(N)=O)NC(=O)[C@H](Cc2ccccc2)NC1=O [BM-23268, H-Cys-Phe-Phe-D-Trp-Lys-Thr-Phe-Cys-NH2]
Ki: 20 nM
